# Earlier results, collected in US5750534A (priority 1996, dated 1998).
# Assays:
# [1] = test system: mu receptor; conditions: cited from earlier work
# [2] = test system: kappa receptor; conditions: cited from earlier work
smiles,measurement,setting,value
Oc1ccc2c3c1O[C@H]1[C@@H](O)CC[C@@]4(O)[C@@H](C2)N(CC2CCC2)CC[C@]314 [nalbuphine],action on mu receptor,[1],antagonist
same,action on mu receptor,[1]; listed as Nalbuphine,mu-receptor antagonist
same,action on kappa receptor,[2],agonist
same,action on kappa receptor,[2]; listed as Nalbuphine,kappa-receptor agonist

# Read-outs that look alike come from different tables or passages of the source.
